Data reported in ChEMBL document CHEMBL1821572, “Discovery of a novel series of selective HCN1 blockers” (Bioorg Med Chem Lett, 2011).
Some compounds may have been tested in ways that are not shown here.

Amino acid sequences for entries named in this document (tags omitted).
UniProt Q9Y3Q4, whole entry: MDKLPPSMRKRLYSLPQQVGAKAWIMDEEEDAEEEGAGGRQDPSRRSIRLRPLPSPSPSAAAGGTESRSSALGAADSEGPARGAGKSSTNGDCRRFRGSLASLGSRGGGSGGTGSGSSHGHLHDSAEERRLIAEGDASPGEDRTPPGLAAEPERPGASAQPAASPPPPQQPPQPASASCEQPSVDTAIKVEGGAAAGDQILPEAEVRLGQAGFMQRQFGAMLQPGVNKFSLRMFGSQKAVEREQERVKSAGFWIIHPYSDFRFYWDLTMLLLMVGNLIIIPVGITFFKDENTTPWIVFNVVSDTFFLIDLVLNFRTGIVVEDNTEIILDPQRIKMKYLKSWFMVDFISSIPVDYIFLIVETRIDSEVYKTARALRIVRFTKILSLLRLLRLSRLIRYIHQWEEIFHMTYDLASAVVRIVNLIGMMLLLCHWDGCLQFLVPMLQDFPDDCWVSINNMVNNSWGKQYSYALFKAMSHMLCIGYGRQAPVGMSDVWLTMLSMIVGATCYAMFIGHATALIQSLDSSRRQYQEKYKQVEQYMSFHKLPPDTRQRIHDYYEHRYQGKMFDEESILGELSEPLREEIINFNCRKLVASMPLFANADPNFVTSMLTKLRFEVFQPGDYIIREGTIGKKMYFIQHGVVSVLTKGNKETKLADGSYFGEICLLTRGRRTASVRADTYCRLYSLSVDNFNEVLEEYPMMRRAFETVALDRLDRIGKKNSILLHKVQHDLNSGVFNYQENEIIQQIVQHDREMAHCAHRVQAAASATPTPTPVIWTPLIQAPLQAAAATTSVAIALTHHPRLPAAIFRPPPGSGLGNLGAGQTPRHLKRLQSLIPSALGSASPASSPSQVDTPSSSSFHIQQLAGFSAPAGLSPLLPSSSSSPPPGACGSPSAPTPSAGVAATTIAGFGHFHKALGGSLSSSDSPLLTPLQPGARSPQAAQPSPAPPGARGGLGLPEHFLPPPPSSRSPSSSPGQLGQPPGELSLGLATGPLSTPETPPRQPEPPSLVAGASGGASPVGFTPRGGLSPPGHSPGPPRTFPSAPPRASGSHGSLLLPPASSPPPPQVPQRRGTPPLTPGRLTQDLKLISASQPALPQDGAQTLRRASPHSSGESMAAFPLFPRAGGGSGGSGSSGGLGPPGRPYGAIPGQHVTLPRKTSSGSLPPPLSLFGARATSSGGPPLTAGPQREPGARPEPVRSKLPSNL
UniProt O60741, whole entry: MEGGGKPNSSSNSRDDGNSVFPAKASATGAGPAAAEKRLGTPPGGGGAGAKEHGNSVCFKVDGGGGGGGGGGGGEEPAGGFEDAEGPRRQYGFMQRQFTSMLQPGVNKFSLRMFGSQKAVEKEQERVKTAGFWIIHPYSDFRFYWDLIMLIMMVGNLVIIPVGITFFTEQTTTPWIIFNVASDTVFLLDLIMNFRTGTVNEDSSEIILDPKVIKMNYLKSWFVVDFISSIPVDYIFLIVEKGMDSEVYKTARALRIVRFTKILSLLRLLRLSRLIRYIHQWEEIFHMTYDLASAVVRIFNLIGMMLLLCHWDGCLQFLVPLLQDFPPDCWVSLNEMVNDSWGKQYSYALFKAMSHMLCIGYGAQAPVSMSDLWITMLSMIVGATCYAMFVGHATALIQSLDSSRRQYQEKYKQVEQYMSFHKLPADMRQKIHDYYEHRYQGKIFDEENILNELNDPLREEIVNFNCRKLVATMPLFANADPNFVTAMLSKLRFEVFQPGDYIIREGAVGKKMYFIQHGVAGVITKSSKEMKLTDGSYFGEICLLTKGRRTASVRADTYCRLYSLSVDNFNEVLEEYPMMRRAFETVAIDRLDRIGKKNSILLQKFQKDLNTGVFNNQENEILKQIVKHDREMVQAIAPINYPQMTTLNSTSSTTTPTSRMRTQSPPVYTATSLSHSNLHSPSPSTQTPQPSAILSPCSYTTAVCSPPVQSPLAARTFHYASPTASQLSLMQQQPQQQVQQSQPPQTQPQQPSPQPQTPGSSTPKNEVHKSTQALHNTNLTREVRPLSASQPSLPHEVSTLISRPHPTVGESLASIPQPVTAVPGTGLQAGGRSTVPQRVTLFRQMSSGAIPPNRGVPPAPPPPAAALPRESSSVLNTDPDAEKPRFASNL

Columns and labels:
[1] = molecular target: Potassium/sodium hyperpolarization-activated cyclic nucleotide-gated channel 4 (Homo sapiens, UniProt Q9Y3Q4); assay: Inhibition of human HCN4 heterologously expressed in HEK-293 cells after 30 mins by VIPR assay; conditions: hek293
[2] = molecular target: Potassium/sodium hyperpolarization-activated cyclic nucleotide-gated channel 1 (Homo sapiens, UniProt O60741); assay: Inhibition of human HCN1 heterologously expressed in HEK-293 cells after 30 mins by VIPR assay; conditions: hek293

Row | Compound | pIC50 [1] | pIC50 [2]
1 | COc1ccccc1C(=O)NCC1(N2CCOCC2)CCCCC1 | 4.3 | –
2 | CCOc1ccccc1C(=O)NCC1(N2CCCCC2)CCCCC1 | 4.4 | 4.8
